The source of these data is US20240287076A1, “COMPOUNDS FOR TARGETING DEGRADATION OF BRUTON'S TYROSINE KINASE” (BIOGEN MA INC., priority 2021, published 2024).

Sequences of proteins named here, by UniProt entry; tags and fusion partners are left off.
UniProt Q06187, whole entry: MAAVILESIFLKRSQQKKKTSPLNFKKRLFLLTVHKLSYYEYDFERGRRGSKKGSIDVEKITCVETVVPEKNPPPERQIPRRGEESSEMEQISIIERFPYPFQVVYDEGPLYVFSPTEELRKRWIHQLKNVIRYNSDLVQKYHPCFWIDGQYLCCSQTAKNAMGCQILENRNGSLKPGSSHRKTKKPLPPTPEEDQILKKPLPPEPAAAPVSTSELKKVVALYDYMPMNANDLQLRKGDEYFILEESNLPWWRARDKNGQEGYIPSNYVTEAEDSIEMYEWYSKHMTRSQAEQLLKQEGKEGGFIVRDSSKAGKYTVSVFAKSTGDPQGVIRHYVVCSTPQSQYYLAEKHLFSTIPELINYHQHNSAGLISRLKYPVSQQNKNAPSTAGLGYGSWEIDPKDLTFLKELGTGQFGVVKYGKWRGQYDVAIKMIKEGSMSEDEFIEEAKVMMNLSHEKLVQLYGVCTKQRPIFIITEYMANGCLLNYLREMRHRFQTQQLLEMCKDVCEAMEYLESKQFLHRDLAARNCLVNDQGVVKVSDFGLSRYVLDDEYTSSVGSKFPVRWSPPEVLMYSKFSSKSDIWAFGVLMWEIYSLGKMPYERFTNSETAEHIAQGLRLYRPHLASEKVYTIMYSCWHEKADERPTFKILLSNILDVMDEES

The structures appear in SMILES notation.

The target of this test is BTK (Homo sapiens, UniProt Q06187). Put plainly: BTK degradation assay using the HiBiT Method (Nano-Glo HiBiT Lytic Assay, GM01501.3 cells). The note with it: HiBiT Degradation on GM01501.3 BTK @ 6 hours. In kind it is cell-based. How it is done:
Selected compounds were tested in a BTK degradation assay using the HiBiT Method. Park Memorial Institute (RPM1) 1640 Medium with phenol red, L-Glutamine, Sodium Pyruvate, and fetal bovine serum (FBS) were purchased from Gibco (Grand Island, NY, USA). Nano-Glo® HiBiT Lytic Assay System was purchased from Promega (Madison, WI, USA). GM01501 cells were obtained from the NIGMS Human Genetic Cell Repository at the Coriell Institute for Medical Research. The GM01501.3 cell line endogenously expresses BTK with a HiBiT fusion tag via CRISPR knock-in at its C-terminal region. It was engineered by electroporation with the Neon Transfection System (Themo Fisher Scientific), according to manufacturer indications. Electroporation conditions: 1 pulse of 1,350 V for 30 ms for 0.5×10_6 cells. Cell culture flasks and 384-well microplates were acquired from VWR (Radnor, PA, USA). BTK degradation was evaluated by quantification of luminescent signal using Nano-Glo® HiBiT Lytic Assay kit. Test compounds were added to the 384-well plate from a top concentration of 10 μM with 11 points, half log titration in duplicates. GM01501.3 cells were added into 384-well plates at a cell density of 10,000 cells per well in a total volume of 30 μl. The plates were kept at 37° C. with 5% CO2 for 6 hours. Negative control wells included cells treated with DMSO only and positive control wells included only growing media, without Nano-Glo® HiBiT Lytic reagent. After a 6-hour incubation, Nano-Glo® HiBiT Lytic Assay reagent was added to the cells following manufacturer indications. Luminescence was acquired on EnVision™ Multilabel Reader (PerkinElmer, Santa Clara, CA, USA). […] “++++” represents a DC50 value of less than 100 nM. “+++” represents a DC50 value of 100 nM-500 nM. “++” represents a DC50 value of 500 nM-1000 nM. “+” represents a DC50 value of greater than 1000 nM.
A general note: The HiBiT peptide binds its large partner to form an active luciferase.
As a reminder, the DC50 is the concentration giving 50% degradation. High values mean a less potent degrader, low ones a more potent degrader. Molecule `Cc1cc(-c2ncnn3cc(CCN4CCC(c5ccc6c(C7CCC(=O)NC7=O)nn(C)c6c5)CC4)cc23)ccc1CNC(=O)c1cc(C(C)(C)C)no1` (stereo not drawn) came in with a DC50 below 100 nM.
`Cc1cc(-c2ncnn3cc(CCN4CCC(c5ccc(CN6CCC(=O)NC6=O)cc5)CC4)cc23)ccc1CNC(=O)c1noc(C(C)(C)C)n1` gave a DC50 below 100 nM.
The value for `Cc1cc(-c2ncnn3cc(CCN4CCC(c5ccc6c(C7CCC(=O)NC7=O)nn(C)c6c5)CC4)cc23)ccc1CNC(=O)c1noc(C2(C(F)(F)F)CC2)n1` (stereo not drawn) was below 100 nM.
